Article PMC4546618, “Casitas B-Lineage Lymphoma RING Domain Inhibitors Protect Mice against High-Fat Diet-Induced Obesity and Insulin Resistance” (PLoS ONE, 2015)

Molecular target: T1, Cbl (RING) protein (Homo sapiens, UniProt P22681)
T1 construct: including the linker and RING domain (codon 358–457); GST (Glutathione S-Transferase); made in house
T1 sequence (P22681 358-457): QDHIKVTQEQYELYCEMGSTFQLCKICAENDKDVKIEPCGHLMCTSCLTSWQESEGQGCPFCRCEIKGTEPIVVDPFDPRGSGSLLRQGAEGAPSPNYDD
Experiment: Fluorescence polarization (FP) assay, competition with FITC-βA-PFKPP-NH2 probe
Assay type: binding
Details: probe FITC-βA-PFKPP-NH2 100 nmol/L, Cbl (RING) protein 3 μmol/L, PBS pH 7.4
Experimental: Peptides and peptide mimetics were purchased from MitenChem (China) with a purity ≥ 98%. Concentrations values of reconstituted peptides were determined by amino acid analysis at the protein core facility (Chengdu Medical College). The recombinant Cbl protein was produced by the Chengdu Medical College Protein Core Facility and was described previously. The c-Cbl (RING) protein, including the linker and RING domain (codon 358–457), was tagged with Glutathione S-Transferase (GST) and purified with GSH-Sepharose (Shanghai Biopharma).
The FP assay was developed and validated previously. Briefly, fluorescein-labeled probe (FITC-βA-PFKPP-NH2, 100 nmol/L) and Cbl (RING) protein (3 μmol/L) were mixed and diluted to the final concentration using 0.01% Triton X-100 in PBS (pH = 7.4). Then, 19 μl of this master mix was loaded to each reaction well. The peptides or peptide mimetics were then loaded to the designated wells (1 μl, 10 μmol/L– 0.078 μmol/L, half-fold dilutions). The total fluorescence and polarization values were measured at an excitation wavelength of 485 nm and an emission wavelength of 538 nm using a ZS-2 plate reader. The data was fitted, and the ΔmP, Kd, and Ki values were estimated, using SigmaPlot 11.0.

Ki [µM] | Substance
66.4 ± 10.8 | Ac-K(u)ATK-NH2 [Peptide 52]
> 250 | Ac-P(h)KP(u)-NH2 [Peptide 23]
